Test system: Kleb. pn.
Experiment: MIC in brain heart infusion (BHI) broth
Assay type: cell-based
Settings: strain 031

## CC[C@H]1OC(=O)[C@H](C)[C@@H](O[C@H]2C[C@@](C)(OC)[C@@H](O)[C@H](C)O2)[C@H](C)[C@@H](O[C@@H]2O[C@H](C)C[C@H](N(C)C)[C@H]2O)[C@](C)(O)C[C@@H](C)C(=O)[C@H](C)[C@@H](O)[C@]1(C)O [(1), Erythromycin A]
  MIC Values: (a) (greater than 50)

Source: patent EP0136831A2, “Azahomoerythromycin B derivatives and intermediates thereof” (PFIZER INC., priority 1983, dated 1985)
